According to patent US11331368B2, “Angiotensin receptor agonists and uses thereof” (Monash University, priority 2017, dated 2022):

T1: human Angiotensin II Receptor Type 2 (AT2R) (human, UniProt P50052 1-363)
T1 construct: whole, on cells; also endogenous on human cardiac fibroblasts (functional entries); also called AT2 receptor
T1 sequence (looked up): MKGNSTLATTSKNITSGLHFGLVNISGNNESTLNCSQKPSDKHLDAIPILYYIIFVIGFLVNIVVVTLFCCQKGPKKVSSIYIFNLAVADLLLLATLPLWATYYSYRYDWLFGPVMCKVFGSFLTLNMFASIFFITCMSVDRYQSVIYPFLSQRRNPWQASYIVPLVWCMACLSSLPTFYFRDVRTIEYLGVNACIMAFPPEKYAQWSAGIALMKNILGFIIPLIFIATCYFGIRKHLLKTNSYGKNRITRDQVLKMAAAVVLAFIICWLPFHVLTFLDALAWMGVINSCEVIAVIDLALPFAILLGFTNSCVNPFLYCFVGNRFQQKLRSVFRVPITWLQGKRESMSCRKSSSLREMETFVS


Tests used:
[1] = target: T1, human Angiotensin II Receptor Type 2 …; experiment: competition radioligand binding on HEK-293 cells with AT2R; competitor [125I]-Sar1Ile8Ang II
[2] = target: T2, human Angiotensin II Receptor Type 1 (AT1R) (human, UniProt P30556 1-359); experiment: competition radioligand binding on HEK-293 cells with AT1R; competitor [125I]-Sar1Ile8Ang II
T2 construct: whole, on cells; also endogenous on human cardiac fibroblasts (functional entry); also called AT1 receptor

IC50 [1] [nM] | IC50 [2] [nM] | Binder
39.1 |  | RVYIHPW (β-Ile at residue 4 of this chain, synthetic peptide; also called Arg-Val-Tyr-β-Ile-His-Pro-Trp) [βILe-Trp-8-Ang III]
2.82 |  | RVYIHPW (D-Arg at residue 1 of this chain (printed D-Arg^2); β-Pro at residue 6 (printed β-Pro^7), Ang II numbering, synthetic peptide; also called D-Arg^2-β-Pro^7-Trp^8-Ang III; D-Arg-Val-Tyr-Ile-His-β-Pro-Trp) [D-Arg-βPro-Trp-8-Ang III]
0.236 |  | RVYIHPW (β-Pro at residue 6 of this chain (printed β-Pro^7, Ang II numbering), synthetic peptide; also called βPro-Trβ-8-Ang III; β-Pro^7-Trp^8-Ang III) [βPro-Trp-8-Ang III]
0.236 |  | RVYIHPW (β-Val at residue 2 of this chain, synthetic peptide; also called Arg-β-Val-Tyr-Ile-His-Pro-Trp) [βVal-Trp-8-Ang III]
49.1 |  | RVYIHPA (β-Pro at residue 6 of this chain, synthetic peptide; also called Arg-Val-Tyr-Ile-His-β-Pro-Ala) [βPro-Ala-8-Ang III]
3.14 | 1930 | RVYIHPW (β-Trp at residue 7 of this chain, synthetic peptide; also called Arg-Val-Tyr-Ile-His-Pro-β-Trp) [Pro-βTrp-8-Ang III]
0.19 | 2940 | RVYIHPW (N-terminal nicotinamido cap; β-Pro at residue 6 of this chain, synthetic peptide; also called Nicotinamido-Arg-Val-Tyr-Ile-His-β-Pro-Trp) [Nic-βPro-Trp-8-Ang III]
7.7 |  | DRVYIHPI (β-Ile at position 8, synthetic peptide; also called Asp-Arg-Val-Tyr-Ile-His-Pro-β-Ile) [βIle-8-Ang II]
30.3 |  | DRVYIHPA (β-Tyr at position 4, synthetic peptide; also called Asp-Arg-Val-β-Tyr-Ile-His-Pro-Ala) [βTyr-Ala-8-Ang II]
23 |  | DRVYIHPA (β-Pro at position 7, synthetic peptide; also called Asp-Arg-Val-Tyr-Ile-His-β-Pro-Ala) [βPro-Ala-8-Ang II]
1.35 | 2500 | RVYIHPW (β-Arg at residue 1 of this chain, synthetic peptide; also called β-Arg-Val-Tyr-Ile-His-Pro-Trp) [βArg-Trp-8-Ang III]
0.324 |  | RVYIHPF (D-Arg at residue 1 of this chain (printed D-Arg^2); β-Pro at residue 6 (printed β-Pro^7), Ang II numbering, synthetic peptide; also called D-Arg^2-β-Pro^7-Ang III; D-Arg-Val-Tyr-Ile-His-β-Pro-Phe) [D-Arg β-Pro-Ang III]
0.468 |  | RVYIHPF (β-Pro at residue 6 of this chain (printed β-Pro^7, Ang II numbering), synthetic peptide; also called β-Pro^7-Ang III; Arg-Val-Tyr-Ile-His-β-Pro-Phe) [βPro-Ang III]
0.78 |  | RVYIHPF (N-terminal Tetrazole-CONH cap; β-Pro at residue 6 of this chain, synthetic peptide; also called Tetrazole-CONH-Arg-Val-Tyr-Ile-His-β-Pro-Phe) [Tet-βPro-Ang III]
13.5 |  | VYIHPF (β-Pro at residue 5 of this chain, synthetic peptide; also called Val-Tyr-Ile-His-β-Pro-Phe) [βPro-Ang IV]
0.18 |  | RVYIHPW (N-terminal Tetrazole-CONH cap; β-Pro at residue 6 of this chain, synthetic peptide; also called Tetrazole-CONH-Arg-Val-Tyr-Ile-His-β-Pro-Trp) [Tet-βPro-Trp-8-Ang III]
